Measured affinities in a library of Ab-14 heavy chain variants

Reference: Li et al. 2023, doi:10.1038/s41467-023-39022-2. File: FLAb, binding data.

Target peptide (SARS-CoV-2 spike, HR2 region): PDVDLGDISGINAS

Parent scFv Ab-14: VH joined to VL by a (GGGGS)3 linker. Changes lie in the heavy chain CDRs alone.
VH: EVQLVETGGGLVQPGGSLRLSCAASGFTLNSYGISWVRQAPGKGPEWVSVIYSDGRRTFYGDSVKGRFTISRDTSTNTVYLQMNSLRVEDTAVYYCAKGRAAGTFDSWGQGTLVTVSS
VL: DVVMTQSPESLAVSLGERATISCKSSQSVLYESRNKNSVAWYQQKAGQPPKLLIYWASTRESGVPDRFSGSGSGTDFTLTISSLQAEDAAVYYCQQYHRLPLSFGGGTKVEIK

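Phage display of a naive human antibody library on the peptide gave the parent. The variants were designed computationally from a first round of random CDR variants and then made and measured. Several design methods are mixed in this list. The scFvs were displayed on barcoded MATa yeast, the peptide on MATalpha yeast. The frequency of each diploid, read from paired DNA barcodes, reflects how well the two displayed proteins bind. The ratio of observed to expected reads was calibrated, replicate by replicate, on BCL2-family standards whose Kd was known from biolayer interferometry. The assay was run in six technical replicates.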

Variants are written as CDR1, CDR2 and CDR3 of the heavy chain (limits as in the source). Parent: GFTLNSYGIS, VIYSDGRRTFYGDSVK, GRAAGTFDS.
Scale: log10 of Kd in nM, estimated from mating counts; low values are strong binders.
Replicates are averaged; those with no signal do not enter the mean.
"not detected" means that the variant was in the library but no mating with the target was seen in any replicate; the authors take this as a sign of poor binding, and no number exists.

CDR-H1,CDR-H2,CDR-H3,"log10 Kd (nM), mean",detected,control signals
GFNLNSYGIS,VIYSDGRRTFYGDSVK,GITAGTFDS,1.34,1 of 6,0 of 18
GFDLNEYGIS,VIYADGRRTFYADSVK,GNVAGTFDL,-0.35,6 of 6,0 of 18
GFTLNSYGIS,VIYSDGRRTFYSDSVK,GVSAGTFDS,1.96,6 of 6,0 of 18
GFSLGEYGCS,VIYSDGRRTFYGDSVR,GRAAGTFDS,1.93,3 of 6,0 of 18
GFWLNEYGIS,VIYSDGRRTFYHDSVK,GRAAGTFDM,2.03,1 of 6,0 of 18
GFSLNTYGIS,VIYSDGRRTFYKDSVK,GKAAGTFDS,0.37,6 of 6,0 of 18
GFDLNEYGIS,VIYADGKRTKYTDNVK,GTLTGTAVT,not detected,0 of 6,0 of 18
GEDLEAYGIS,VIYADGVRTGYVNKVK,GDTGGMFDD,not detected,0 of 6,0 of 18
GFNLNSYGIS,VIYSDGRRTFYGDSVK,GQTAGTFDA,1.55,6 of 6,0 of 18
GFQIDEYGIS,VIYADGQRSAYSENVK,GQHGGMTVS,not detected,0 of 6,0 of 18
GNDLEEYGIS,VIYADGMRTAAVDSVK,GDNSGTVVV,not detected,0 of 6,0 of 18
GFDLDKYGIS,VIYADGARKAYQNQFK,GGQAGTFVN,2.44,4 of 6,2 of 18
GFTLNSYGIS,VIYSDGRRGAYGDSVK,GYAAGTFDT,not detected,0 of 6,0 of 18
GFSLNEYGIS,VIYSDGRRTFYSDSVK,GPAAGTFDR,3.13,1 of 6,0 of 18
GFTLDSYGIS,VIYSDGRRTFYGDKVK,GRAAGTFDS,1.89,4 of 6,0 of 18
GFNLNEYGIS,VIYADGRRSFYSDSVK,GEVAGTFDV,-0.65,6 of 6,0 of 18
GFQLNSYGIS,VIYSDGRRTFYGDSVK,GQAAGTFDL,0.76,2 of 6,0 of 18
GFTLNSYGIS,VIYSDGRRTFYGDSVK,GAEAGTFDS,0.58,6 of 6,0 of 18
GFDLNSYGIS,VIYSDGRRTFYGDSVK,GKKAGTFDS,1.88,4 of 6,0 of 18
GFDLENQGVS,VIYADGKRAAYSDNVK,GYSTGFIDV,not detected,0 of 6,0 of 18
GFGLNSYGIS,VIYSDGRRTFYSDSVK,GEAAGTFDS,1.09,6 of 6,0 of 18
GFTLNDDGIS,VKHSDGRRQQYIDSVK,GRADGTFDS,not detected,0 of 6,1 of 18
GEDLEEYGIS,VIYADGRRSAYADNVK,GMSGKFGMF,not detected,0 of 6,1 of 18
GFDLNEYGIS,VIYADGKRTYYADSVK,GEVAGTFDL,-0.14,6 of 6,0 of 18
HFELNSYGIS,VIYSDGRRTFYGDSVK,GKTAGTFDS,1.49,3 of 6,0 of 18
GFTINSYGIS,VIYSDGRRTFYLDSVK,GRAAGTFDS,2.24,2 of 6,0 of 18
GFDLDEYGIS,VIYADGKRTAYSDSVK,GNTAGTFDQ,-0.32,6 of 6,0 of 18
GDSLNSYGIS,VIYSDGRRTFYADSVK,GRTAGTFDS,1.30,6 of 6,1 of 18
GFDLNEYGIS,VIYADGRRTAYVDSVK,GEVAGTFDL,-0.33,6 of 6,0 of 18
GFDLNEYGIS,VIYADGSRTFYSDSVK,GNQAGTFDQ,-0.02,6 of 6,0 of 18
GFDLNEYGIS,VIYADGMRKAYADSVK,GNVAGTFDL,-0.57,6 of 6,0 of 18
GFSLNDYGIS,VIYSDGRRTFYGDSVK,GRAAATFDS,not detected,0 of 6,0 of 18
GEELEEYGIS,VIYADGRKQSYSDSFK,GAIAGNFDM,not detected,0 of 6,0 of 18
EFEIQDYGIS,VIYADGFRTAYAESVK,GNMGGTFST,2.10,4 of 6,0 of 18
GFDINEYGIS,VIYADGLRTAYSQQVK,GQDLVDVVD,not detected,0 of 6,0 of 18
GFDIDEYGIS,VIYADGMRTFYTDSVK,GENAGTFDA,-0.64,6 of 6,0 of 18

Further variants, results first:

"log10 Kd (nM), mean",detected,control signals,CDR-H1,CDR-H2,CDR-H3
0.03,6 of 6,2 of 18,GFDLEEYGIS,VIYADGKRTAYADSVK,GQNAGTFDV
0.64,4 of 6,0 of 18,GFTLQSYGIS,VIYADGRRTFYGDSVK,GQAAGTFDS
2.00,3 of 6,0 of 18,GFELNSYGIS,VIYSDGRRTFYIDSVK,GRAAGTFDS
1.84,2 of 6,0 of 18,KFTLNSYGIS,VIYSDGRRTFYKDSVK,GQTAGTFDS
-0.09,6 of 6,0 of 18,GFNLDEYGIS,VIYADGMRTAYADSVK,GEVAGTFDL
-0.20,6 of 6,0 of 18,GFGLNDYGIS,VIYSDGRRTFYSDSVK,GRTAGTFDS
1.87,1 of 6,1 of 18,GFTLNQYGIS,VIYSDGRRTFYGDSVK,VRAAGTFDS
-0.15,6 of 6,0 of 18,GFELNSYGIS,VIYADGRRTFYGDNVK,GRTAGTFDS
-0.74,6 of 6,0 of 18,GFDLNEYGIS,VIYADGRRTAYADDVK,GGNAGTFDI
0.44,5 of 6,0 of 18,GFQLNDYGIS,VIYSDGRRTFYGDSVK,GTAAGTFDS
1.14,4 of 6,0 of 18,GETLNEYGIS,VIYSDGRRTFYGDSVK,GRAAVTFDT
0.99,6 of 6,0 of 18,HFDLNSYGIS,VIYSDGRRTFYGDSVK,GQTAGTFDS
not detected,0 of 6,0 of 18,GFSLKEYGIS,VIYSDGRRTFYGDSVK,GRAAVTFDQ
1.40,6 of 6,0 of 18,QFDLNSYGIS,VIYSDGRRTFYIDSVK,GNAAGTFDS
0.81,6 of 6,0 of 18,GFEIQEFGIS,VIYADGIRTNYSQNVK,GTLAGTFTT
not detected,0 of 6,0 of 18,GFTLNQYGIS,VIYSDGRRTFYSCSVK,NRAAGFFDS
0.76,6 of 6,1 of 18,GFELNEYGIS,VIYSDGRRTFYSDSVK,GNAAGTFDS
-0.23,6 of 6,1 of 18,GFELNSYGIS,VIYSDGRRTFYADDVK,GRTAGTFDT
-0.11,6 of 6,0 of 18,GFSLNQYGIS,VIYSDGRRTFYSDSVK,GEAAGTFDS
0.05,6 of 6,0 of 18,GFDLNEYGIS,VIYADGSRTYYADSVK,GENAGTFDV
0.35,6 of 6,1 of 18,GFTLNSYGIS,VIYSDGRRTFYHDSVK,GQTAGTFDT
not detected,0 of 6,0 of 18,GFDLNEYGIS,VIYADGRRTFYTDSVK,GANAGTFDD
1.48,4 of 6,0 of 18,GFWLNEYGIS,VIYSDGRRTFYGDSVK,GRLAGTFDS
not detected,0 of 6,1 of 18,GEELNEYGIS,VIYRDGRRTFYGDSVK,GRAAGTFDS
not detected,0 of 6,0 of 18,GFDLNEYGVS,VIYADGKRTFYADHVK,GVNAGGFDT
-0.35,6 of 6,0 of 18,GFDLNEYGIS,VIYADGRRTFYTDSVK,GTNAGTFDM
0.29,6 of 6,0 of 18,GFDLNEYGIS,VIYADGMRTSYTDSVK,GENAGTFDV
0.10,6 of 6,0 of 18,GFDLDEYGIS,VIYADGSRTAYADSVK,GEVAGTFDV
not detected,0 of 6,1 of 18,GFTLNDYGIS,VIYSDGRRTQYGDSVK,GRTAGTFWS
-0.08,6 of 6,0 of 18,GFDLNSYGIS,VIYSDGRRTFYVDSVK,GNTAGTFDS
0.47,12 of 12,1 of 36,GFTLNEYGIS,VIYSDGRRTFYGDSVK,GQAAGTFDV
0.06,6 of 6,0 of 18,GFSLDEYGIS,VIYADGRRTFYADSVK,GNSAGTFDI
-0.30,6 of 6,0 of 18,GFDLNEYGIS,VIYADGQRTAYADSVK,GEAAGTFDV
0.22,6 of 6,1 of 18,GFELNDYGIS,VIYSDGRRTFYGDSVK,GRQAGTFDA
-0.84,6 of 6,0 of 18,GFDLNEYGIS,VIYADGSRTFYADSVK,GNVAGTFDL
not detected,0 of 6,0 of 18,GFTLASYGIS,VIYSDGRRTFYGDSVK,GKAFGTFDS

Repeated from above, the 4 best binders with a signal in all replicates:

CDR-H1,CDR-H2,CDR-H3,"log10 Kd (nM), mean",detected,control signals
GFDLNEYGIS,VIYADGSRTFYADSVK,GNVAGTFDL,-0.84,6 of 6,0 of 18
GFDLNEYGIS,VIYADGRRTAYADDVK,GGNAGTFDI,-0.74,6 of 6,0 of 18
GFNLNEYGIS,VIYADGRRSFYSDSVK,GEVAGTFDV,-0.65,6 of 6,0 of 18
GFDIDEYGIS,VIYADGMRTFYTDSVK,GENAGTFDA,-0.64,6 of 6,0 of 18

The range of this assay differs from that of the first round, and the authors advise against merging the two.
The authors' rule: three or more of the six replicates give a measured affinity, fewer mean a poor binder.
The parent sequence was in this pool as ten entries: three were never detected, three once, and four in most replicates, with averages from 0.34 to 2.37.
Some sequences occur more than once in the pool; their replicates are pooled.
Nonspecific signal, from three strains lacking the peptide, appeared in 1% of pairings of all heavy chain designs, centred on 2.08 (5% of these signals below 0.84); values are not corrected for it. For each scFv, signals with the empty controls are counted beside the result.